{"source": "patent US7223533B2", "about": "“Cell surface proteins and use thereof as indicators of activation of cellular signal transduction pathways” (priority 1999, dated 2007)", "target": "T1, Ste2 receptor (Saccharomyces cerevisiae, UniProt D6VTK4)", "T1 construct": "Yeast cells coexpressing either the endogenous yeast receptor Ste2p; endogenous in cells; host or cells: S. cerevisiae MATa cells (strain CY1892 in the Sag1p-based ELISA)", "T1 sequence (D6VTK4 1-431)": "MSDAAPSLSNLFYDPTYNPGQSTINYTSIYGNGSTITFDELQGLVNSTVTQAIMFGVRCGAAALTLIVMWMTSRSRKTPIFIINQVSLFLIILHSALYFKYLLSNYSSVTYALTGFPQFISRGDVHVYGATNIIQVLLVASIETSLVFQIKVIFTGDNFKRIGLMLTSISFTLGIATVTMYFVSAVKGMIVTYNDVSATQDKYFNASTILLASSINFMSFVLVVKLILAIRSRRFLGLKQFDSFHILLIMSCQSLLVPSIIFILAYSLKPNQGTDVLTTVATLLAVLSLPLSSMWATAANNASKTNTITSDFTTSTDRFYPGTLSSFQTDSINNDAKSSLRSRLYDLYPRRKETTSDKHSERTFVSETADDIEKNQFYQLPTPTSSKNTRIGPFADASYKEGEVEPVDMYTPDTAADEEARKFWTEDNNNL", "test": "ELISA-like assay of endogenous Aga2 protein with Sag1p21-352, anti-Xpress antibodies and HRP conjugate", "assay_type": "cell-based, S. cerevisiae", "conditions": "read-out: EC50 of induction of the Aga2 protein; strain CY1892, Sag1p21-352 / anti-Xpress / HRP detection", "procedure": "Extraction of the endogenous Aga2 protein was effected with DTT, as before. Aliquots (25 microliters) of extracts were diluted with 75 microliters of 100 mM sodium bicarbonate, pH 9.5 and the resulting samples were incubated in 96-well polystyrene plates at 4° C. overnight.\nAfter washing the plates three times with PBS, pH 6.5, supplemented with 0.1% Tween 20, samples were blocked with the same buffer containing 3% bovine serum albumin at 37° C. for 1 hour. After blocking, the plates were incubated subsequently with EndoH-treated Sag1p^21-352 solution (0.5 mg/ml), 1000-fold diluted anti-Xpress antibodies (Invitrogen) and 5000-fold diluted sheep anti-mouse IgG conjugated with horseradish peroxidase (Amersham Pharmacia Biotech). Both Sag1p^21-352 and antibodies were dissolved in PBS, pH 6.5 supplemented with 3% BSA. Each incubation was conducted at room temperature for 1 hr and was followed by three washes with PBS, pH 6.5, 0.1% Tween 20. Finally, the peroxidase activities in each well were determined using tetramethyl benzidine as a substrate. If the Aga2 protein were present in the plate, the Sag1p^21-352 should bind to it, the anti-Xpress antibody binds to the Sag1p^21-352 fusion protein, and the sheep anti-mouse IgG antibodies bind specifically to the anti-Xpress antibody.", "data": [{"substance": "α-factor", "values": [{"measurement": "EC50", "result": 37, "unit": "nM"}]}]}
